Assay results published in PMC4773911 (Journal of the American Chemical Society, 2015).

Biological target: T1, DAGL-α (Homo sapiens, UniProt Q9Y4D2)
T1 sequence (Q9Y4D2 1-1042): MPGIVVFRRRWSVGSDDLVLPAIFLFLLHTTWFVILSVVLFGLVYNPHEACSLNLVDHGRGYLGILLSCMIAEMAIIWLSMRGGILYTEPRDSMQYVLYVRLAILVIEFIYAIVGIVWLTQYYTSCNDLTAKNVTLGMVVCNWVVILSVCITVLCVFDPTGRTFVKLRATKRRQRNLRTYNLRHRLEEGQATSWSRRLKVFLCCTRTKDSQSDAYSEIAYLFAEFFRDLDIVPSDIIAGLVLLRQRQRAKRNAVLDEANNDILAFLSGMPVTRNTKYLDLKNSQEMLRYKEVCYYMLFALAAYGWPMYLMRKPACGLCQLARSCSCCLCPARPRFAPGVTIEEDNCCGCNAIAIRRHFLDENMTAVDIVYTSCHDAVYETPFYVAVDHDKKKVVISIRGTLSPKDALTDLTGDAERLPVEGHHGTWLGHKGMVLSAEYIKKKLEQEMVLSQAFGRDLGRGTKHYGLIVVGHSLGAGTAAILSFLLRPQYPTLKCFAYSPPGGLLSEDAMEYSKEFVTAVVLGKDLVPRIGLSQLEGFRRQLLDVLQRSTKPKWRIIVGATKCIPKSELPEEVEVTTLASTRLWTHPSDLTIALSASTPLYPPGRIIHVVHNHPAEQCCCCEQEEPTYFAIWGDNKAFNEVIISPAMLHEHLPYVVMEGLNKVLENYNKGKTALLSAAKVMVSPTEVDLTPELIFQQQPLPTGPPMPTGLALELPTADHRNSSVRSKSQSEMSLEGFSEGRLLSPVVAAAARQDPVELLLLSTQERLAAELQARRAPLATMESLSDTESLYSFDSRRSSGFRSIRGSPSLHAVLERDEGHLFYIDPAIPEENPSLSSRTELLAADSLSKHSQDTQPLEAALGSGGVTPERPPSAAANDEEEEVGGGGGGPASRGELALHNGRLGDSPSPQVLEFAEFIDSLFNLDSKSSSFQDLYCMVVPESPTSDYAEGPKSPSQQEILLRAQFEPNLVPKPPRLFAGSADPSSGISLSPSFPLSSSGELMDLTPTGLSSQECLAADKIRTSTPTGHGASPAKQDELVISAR
Experiment: real-time, fluorescence-based
Details: substrate 1-stearoyl-2-arachidonoyl-sn-glycerol; n=4

Cc1ccc(-c2cnc3nc(C(=O)CCCCCc4ccccc4)oc3c2)cc1 [LEI105]
pIC50 of DAGL-α inhibition, natural substrate assay: 7.9 ± 0.08
